Results on 1 molecule are retold here after patent publication US12629398B2, “Method of alleviating obsessive compulsive disorder symptoms by use of a multi-strain probiotic formulation” (Unique Biotech Limited, priority 2024, dated 2026).

One test concerns TNF-α. Description: Real-time PCR of cytokine mRNA in the amygdala: TNF-α. To be noted: rat, in vivo. On the procedure:
(§1) Experimental design was as given in Ref 12, incorporated herein in its entirety. The rats were randomly distributed into 5 different groups, with 6-8 rats per group (FIG. 1). Group 1, referred to as the “Vehicle” group, received the vehicle for a duration of 8 weeks. Group 2, denoted as the “Probiotic” group, received the peroral (PO) multistrain probiotic at a dose of 1× 10^10 CFU per rat for 8 weeks.
(§2) RT-PCR was performed to analyze the impact of a multistrain probiotic on cytokines mRNA expression (Ref 20, Rahman et al). Briefly, NucleoSpin® RNA isolation kit (#740955.50, DSS Takara Bio India Private Ltd) was used to extract RNA from the rat brain's amygdala. PrimeScript™ 1st strand cDNA synthesis kit (#6110A, DSS Takara Bio India Private Ltd) was used to process these RNA samples to cDNA. The 10 μL reaction mixture was prepared by mixing 5 μL of SYBR Green, 2 μL of the PCR primer (1 μL reverse+1 μL forward) (GCC Biotech, India, Private Ltd.). 1 μL of diluted cDNA template and 2 μL nuclease-free water. For each PCR test, the threshold cycle numbers were averaged across all samples. Using Δ/Δ Ct technique, the relative mRNA expression was calculated. The primers were designed (Table 6) using the software tools NCBI BLAST.

Another test relates to colon. As to the kind of experiment: Colon histopathology (H&E and alcian blue-PAS staining). As to conditions: rat, in vivo. On the procedure: as §1
To examine the gut permeability, H&E and alcian-blue PAS staining were performed. The method is already described in our publications (Ref 20, 21, and 22), incorporated herein in its entirety. Briefly, sections were processed for deparaffinization with xylene, rehydration with alcohol, and then stained with H&E and alcian blue-PAS agents. Finally, slides were mounted with (DPX) followed by observations under a microscope (Leica-ICC50 W).

Another test concerns intestinal microbiota. Description: 16S rRNA gene sequencing of fecal samples, intestinal microbiota. To be noted: rat, in vivo.
Excerpt: as §1

The next test concerns nNOS. Description: Western blot analysis of nNOS in the frontal cortex. To be noted: rat, in vivo; hydrochloride.
Excerpt: as §1
Radioimmunoprecipitation Assay (RIPA) buffer was used to homogenize the frontal cortex part of the rat brain and then resolved using sodium dodecyl sulfate-polyacrylamide gel electrophoresis (SDS-PAGE). The proteins were then transferred to a nitrocellulose membrane, blocked with 5% bovine serum albumin, and incubated with the primary antibody anti-NOS1 (sc-5302, 1:1000 dilution) overnight at 4° C., followed by incubation with horseradish peroxidase-conjugate secondary antibody at RT. The required proteins were then detected by using an ECL solution.

The subject of test [1] is quinpirole-injected rats. As to the kind of experiment: Elevated plus maze (EPM) test, anxiety-like behavior, quinpirole OCD model. Set-up: species or system Wistar rats. As to conditions: rat, in vivo.
Excerpt: as §1

Test [2] deals with quinpirole-injected rats. Description: Marble burying test, quinpirole OCD model. As to conditions: rat, in vivo. Set-up: species or system Wistar rats.
Excerpt: as §1

For a further test, the system named is IL-6. Description: Real-time PCR of cytokine mRNA in the amygdala: IL-6. To be noted: rat, in vivo. As for the experimental part: as §1, §2
Test [3] relates to quinpirole-injected rats. As to the kind of experiment: Self-grooming test, quinpirole OCD model. More on the design: species or system Wistar rats. To be noted: rat, in vivo.
Excerpt: as §1

The subject of test [4] is quinpirole-injected rats. Description: Hole board test, quinpirole OCD model. As to conditions: rat, in vivo. Set-up: species or system Wistar rats.
Excerpt: as §1

In the next test the test system is SCFAs. Description: Short-chain fatty acids (SCFAs) in fecal samples by GC-FID. To be noted: rat, in vivo.
Excerpt: as §1
The gas chromatography-flame ionization detection (GC-FID) was used to evaluate the effect of OCD on bacterial metabolites as described earlier in our publications (Ref 22, Rahman et al & Ref 23, Satti et al). Briefly, supernatant acidified with HCL (5 M) and then extracted in diethyl ether to estimate the SCFAs. The acetate, propionate, and butyrate levels were estimated by loading the known amount of each SCFA.

Each structure is given as a SMILES string. “Also recorded” adds a separate entry of the source. Structures can show the parent of a compound that is named as a salt.

With `CCCN1CCC[C@@H]2Cc3n[nH]cc3C[C@H]21` [Quinpirole, (−)-Quinpirole hydrochloride], the “mRNA expression of TNF-α” value in the test on TNF-α is listed as “statistically insignificant”. For the same molecule, in the test on colon, the “number of mature goblet cells” value was “reduced” and the “villus height/crypt depth ratio” value is on record as “reduced”. Further, in the test with intestinal microbiota, the “abundance of Lactobacillus reuteri” value was “reduced abundance”, the “abundance of Lactobacillus vaginalis” value is “reduced abundance”, the “levels of Allobaculum” value is on record as “increased” and the “levels of Bifidobacterium” value is on record as “increased”. Further, in the test with intestinal microbiota, the “levels of Prevotella genus” value was “increased”, the “relative abundance of Bifidobacterium animalis” value is recorded as “increased relative abundance”, the “relative abundance of Lactobacillus” value was “decreased” and the “relative abundance of Ruminococcus flavefaciens” value is on record as “increased relative abundance”. Moreover, the “expression of nNOS” value in the test with nNOS is on record as “significantly increased levels; also recorded: increased expression”. Moreover, in the test on quinpirole-injected rats [1], the “% Entries into open arms” value is on record as “fewer entries” and the “% Time spent in the open arms” value is listed as “spent less time”. Moreover, in the test on quinpirole-injected rats [2], the “number of marbles buried (increase by quinpirole)” value is given as “considerably more”. Moreover, the “mRNA expression of IL-6” value with IL-6 was “significant increase”. For the same molecule, the “self-grooming activity (number of grooming episodes, score)” value in the test with quinpirole-injected rats [3] is given as “higher grooming activity”. For the same molecule, the head dipping activity entry with quinpirole-injected rats [4] is on record as “nonsignificant decrease”. In the test with SCFAs, the “Acetate (μg/mL) (Mean ± S.E.M.)” value worked out at 1.94 ± 0.14 µg/mL, the “Butyrate (μg/mL) (Mean ± S.E.M.)” value worked out at 1.70 ± 0.73 µg/mL, the “Propionate (μg/mL) (Mean ± S.E.M.)” value is 1.25 ± 0.29 µg/mL and the “acetate level” value is on record as “lower levels”.
